Chains of the proteins cited; added tags and fusions are not shown.
UniProt P13945, whole entry: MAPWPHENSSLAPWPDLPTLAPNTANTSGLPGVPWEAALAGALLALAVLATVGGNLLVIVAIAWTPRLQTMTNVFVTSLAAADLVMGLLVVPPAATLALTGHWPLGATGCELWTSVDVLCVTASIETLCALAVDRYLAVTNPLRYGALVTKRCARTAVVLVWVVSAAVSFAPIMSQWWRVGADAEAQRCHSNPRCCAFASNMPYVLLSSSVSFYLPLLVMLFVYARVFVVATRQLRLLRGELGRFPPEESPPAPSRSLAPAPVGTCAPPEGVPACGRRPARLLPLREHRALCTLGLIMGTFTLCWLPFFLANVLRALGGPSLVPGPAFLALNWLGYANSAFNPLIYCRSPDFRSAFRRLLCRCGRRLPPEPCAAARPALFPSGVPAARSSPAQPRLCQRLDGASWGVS
UniProt P08588, whole entry: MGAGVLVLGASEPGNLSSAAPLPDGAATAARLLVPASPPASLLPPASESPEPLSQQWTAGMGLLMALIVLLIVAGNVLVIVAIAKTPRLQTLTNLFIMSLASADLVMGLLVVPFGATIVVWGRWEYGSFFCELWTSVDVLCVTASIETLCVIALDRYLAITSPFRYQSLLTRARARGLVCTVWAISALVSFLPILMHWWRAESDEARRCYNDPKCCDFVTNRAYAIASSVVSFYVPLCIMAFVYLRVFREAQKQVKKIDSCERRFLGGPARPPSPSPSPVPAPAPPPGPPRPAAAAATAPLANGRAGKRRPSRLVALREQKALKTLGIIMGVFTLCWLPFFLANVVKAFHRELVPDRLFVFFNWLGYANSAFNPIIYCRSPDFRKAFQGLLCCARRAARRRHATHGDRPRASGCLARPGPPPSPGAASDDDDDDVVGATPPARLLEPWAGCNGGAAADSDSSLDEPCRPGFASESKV
UniProt P25100, whole entry: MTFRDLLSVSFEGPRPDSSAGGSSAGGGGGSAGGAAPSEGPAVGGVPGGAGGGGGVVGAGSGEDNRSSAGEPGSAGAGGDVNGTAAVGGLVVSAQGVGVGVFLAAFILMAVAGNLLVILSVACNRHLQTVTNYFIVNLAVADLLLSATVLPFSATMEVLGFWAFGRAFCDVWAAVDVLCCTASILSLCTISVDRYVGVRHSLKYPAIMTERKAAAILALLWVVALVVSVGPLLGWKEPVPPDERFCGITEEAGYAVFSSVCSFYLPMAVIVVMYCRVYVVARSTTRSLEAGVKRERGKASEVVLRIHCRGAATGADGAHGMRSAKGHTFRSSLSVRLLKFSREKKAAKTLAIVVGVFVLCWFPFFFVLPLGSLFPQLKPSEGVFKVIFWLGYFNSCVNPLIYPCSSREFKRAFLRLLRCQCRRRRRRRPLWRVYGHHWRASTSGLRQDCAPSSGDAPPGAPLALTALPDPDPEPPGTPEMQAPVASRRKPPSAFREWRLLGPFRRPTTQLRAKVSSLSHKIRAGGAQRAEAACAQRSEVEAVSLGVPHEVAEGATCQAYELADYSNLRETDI
UniProt P35348, whole entry: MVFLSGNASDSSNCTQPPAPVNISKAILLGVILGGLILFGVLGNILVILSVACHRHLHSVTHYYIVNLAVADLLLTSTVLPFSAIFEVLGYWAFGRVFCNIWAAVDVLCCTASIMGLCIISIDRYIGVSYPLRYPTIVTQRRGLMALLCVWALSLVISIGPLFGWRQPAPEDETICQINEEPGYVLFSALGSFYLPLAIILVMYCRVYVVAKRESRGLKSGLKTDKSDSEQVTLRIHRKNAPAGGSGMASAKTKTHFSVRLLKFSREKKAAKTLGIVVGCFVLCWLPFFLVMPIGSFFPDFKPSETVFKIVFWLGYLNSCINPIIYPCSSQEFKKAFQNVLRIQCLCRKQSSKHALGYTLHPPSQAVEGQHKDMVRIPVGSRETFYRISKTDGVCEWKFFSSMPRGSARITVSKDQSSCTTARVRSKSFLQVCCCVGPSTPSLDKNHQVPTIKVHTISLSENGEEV
UniProt P35368, whole entry: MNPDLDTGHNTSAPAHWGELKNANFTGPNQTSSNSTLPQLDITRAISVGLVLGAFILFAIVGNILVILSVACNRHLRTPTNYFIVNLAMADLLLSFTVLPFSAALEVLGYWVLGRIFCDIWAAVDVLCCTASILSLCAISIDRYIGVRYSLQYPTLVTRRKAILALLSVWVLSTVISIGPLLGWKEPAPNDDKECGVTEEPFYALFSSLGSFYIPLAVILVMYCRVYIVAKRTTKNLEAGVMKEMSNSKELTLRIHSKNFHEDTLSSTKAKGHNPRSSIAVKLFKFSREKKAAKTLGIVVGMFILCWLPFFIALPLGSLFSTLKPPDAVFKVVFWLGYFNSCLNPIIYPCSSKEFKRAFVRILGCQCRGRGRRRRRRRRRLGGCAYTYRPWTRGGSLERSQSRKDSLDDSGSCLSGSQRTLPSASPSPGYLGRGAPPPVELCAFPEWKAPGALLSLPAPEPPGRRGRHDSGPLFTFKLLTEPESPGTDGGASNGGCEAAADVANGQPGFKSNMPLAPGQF

According to patent US8008506B2, “Indazole compounds” (priority 2008, dated 2011):

Tests used:
[1] = system: rat under pentobarbital anesthesia; test: Test Example 9: effect on blood pressure and heart rate of rat under pentobarbital anesthesia; format: in vivo; conditions: 3 mg/kg intravenous, male SD rat, average value ± standard error of largest change
[2] = target: T1, human β3 adrenergic receptor (Homo sapiens, UniProt P13945); test: Test Example 1-A: human β3 adrenergic receptor agonist activity (cAMP EIA, transfected CHO cells, 24-well); format: cell-based; conditions: Table 1; maximum response to isoproterenol taken as 100%
[3] = target: T2, human β1 adrenergic receptor (Homo sapiens, UniProt P08588); test: Test Example 2-A: human β1 adrenergic receptor agonist activity (method of Test Example 1-A); format: cell-based; conditions: Table 1
[4] = target: human α1D adrenergic receptor (Homo sapiens, UniProt P25100); test: Test Example 6: human α1D adrenergic receptor agonist activity (SRE-luciferase, HEK293 cells); format: cell-based; conditions: phenylephrine as positive control
Method: Measurement of Human α1D Adrenergic Receptor Agonist Activity
(§1) The measurement of the human α1D adrenergic receptor agonist activity is carried out using HEK293 cells transiently co-transfected with pcDNA3.1 (manufactured by Invitrogen, Inc.) to which human α1D gene has been inserted, and with a luciferase gene-expressing vector, pSRE-Luc. plasmid (manufactured by Stratagene Corp.). These cells are seeded onto a 96-well plate at a concentration of 40,000 cells/well, and are cultured overnight in DMEM medium containing 2% fetal bovine serum, under the conditions of 37° C. and 5% CO2. A test compound is dissolved in DMSO and then is diluted with the medium, and this dilution is added to the cells to react for several hours. […]. After 30 minutes, the luminescence value is measured. Maximum response to phenylephrine as a positive control is taken as 100%, and the maximum response ratio of each test compound is calculated as the Intrinsic Activity [I.A. (%)].

[5] = target: human α1A adrenergic receptor (Homo sapiens, UniProt P35348); test: Test Example 4: human α1A adrenergic receptor agonist activity (Ca flux, Fura-2, transfected HEK293 cells); format: cell-based; conditions: maximum response to norepinephrine taken as 100%
[6] = target: T1, human β3 adrenergic receptor; test: Test Example 1-B: human β3 adrenergic receptor agonist activity (cAMP-Screen kit, transfected CHO cells, 96-well); format: cell-based; conditions: read-out: β3 receptor EC50, Table 2
[7] = target: T2, human β1 adrenergic receptor; test: Test Example 2-B: human β1 adrenergic receptor agonist activity (method of Test Example 1-B); format: cell-based; conditions: Table 2
[8] = target: human α1B adrenergic receptor (Homo sapiens, UniProt P35368); test: Test Example 5: human α1B adrenergic receptor agonist activity (SRE-luciferase, HEK293 cells); format: cell-based; conditions: phenylephrine as positive control
Method: Measurement of Human α1B Adrenergic Receptor Agonist Activity
as §1, with “α1B” for “α1D”, “inserted” for “inserted,”, “and” for “and with”

Row | Compound | increase in MBP (%) [1] | β3 receptor I.A. [2] | β1 receptor EC50 [3] | α1D agonist activity [4] | α1A receptor I.A. ([5]; Table 1) | α1A receptor I.A. ([5]; Table 2) | EC50 [6] | β1 receptor EC50 [7] | α1B agonist activity [8]
1 | Cc1n[nH]c2cc(OCCNC[C@H](O)c3ccc(Cl)c(NS(C)(=O)=O)c3)ccc12 | 12.6 ± 4.1% |  |  |  |  |  |  |  | 
2 | COc1n[nH]c2cc(OCCNC[C@H](O)c3cccc(NS(C)(=O)=O)c3)ccc12 | 12.8 ± 4.4% | 64% | a) | did not have α1D agonist activity | 60% | 60% | 40 nM | a) | did not have α1B agonist activity
